Values of other authors in publication PMC12019583 (Journal of Neurochemistry, 2025).

Tested on: SERT
Parameters: method as in Plenge et al. [2007]
Details: ref Plenge et al. [2007]; cited from earlier work

Fc1ccc([C@@H]2CCNC[C@H]2COc2ccc3c(c2)OCO3)cc1 [Paroxetine, paroxetine]
off-rate: ~ 0.002 s^−1
